# Values of other authors as cited in patent publication US20110301209A1, “METHODS AND COMPOSITIONS FOR THE TREATMENT OF CANCER, TUMORS, AND TUMOR-RELATED DISORDERS” (TRAGARA PHARMACEUTICALS, INC., priority 2007, published 2011).
# System: SKBR3 cells engineered to overexpress IGF-1R
# Settings: SKBR3 cells overexpressing IGF-1R; cited from earlier work
substance,measurement,value
trastuzumab: an antibody directed against ErbB2,Response (proliferation),no response
